Vif-A3G inh: blocks the Vif interaction with human APOBEC3G; Q9HC16; HeLa A3G-eYFP + Vif (tagged APOBEC3G with the HIV-1 protein that degrades it), YFP fluorescence, overnight; Potency, µM (doses to about 46.1 µM), actives largely listed as inhibitors; hit rate 0.076% among 410,000; note: nearly all actives have a fitted effect of over 60% in size
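HeLa cells stably expressing Vif and C-terminally eYFP-tagged A3G, seeded overnight at 37 deg C, then exposed to compound by pintool overnight at 37 deg C. Rise in yellow fluorescence (Ex 488/Em 500-530, Acumen) marks blocked Vif-driven A3G degradation.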
Vif-APOBEC3F blk: blocks the Vif interaction with APOBEC3F; HeLa A3F-eYFP + Vif (tagged APOBEC3F with the HIV-1 protein that degrades it), YFP fluorescence increase; Potency, µM (doses to about 46.1 µM); hit rate 0.2% among 390,000; AID 602313; note: nearly all actives have a fitted effect of over 65% in size
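Fluorescence increase (Ex 488/Em 500-530) after overnight compound treatment at 37 deg C flags inhibition of Vif-driven A3F-eYFP loss in stable HeLa A3F-eYFP/Vif cells seeded overnight beforehand.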
miR-21 FLuc: raises the signal of a miR-21 reporter; HeLa miR-21 FLuc reporter, luciferase, 48 h; Potency, µM (highest dose often 38.3 µM); 340,000 tested, under 10 active; active = well fitted rising curve with a large enough effect; inconclusive = small, poorly fitted or top-dose-only effect; inactive = no such curve, though single readings can be large or run the other way;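 note: miR-21 action dims this reporter so a rising signal means less miR-21 action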
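Using DMEM plus 10% FBS, HeLa miR-21-FLuc cells are incubated with test compounds (final up to about 40uM) for 48 hours; firefly luciferase signal is then imaged following reagent-mediated lysis.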
Epigenetic reg: epigenetic control regulation, reporter derepression | murine LDR cells, GFP reporter derepression, 30 h | Potency, µM (doses to about 53.9 µM), hits mostly activators | hit rate 0.2% among 280,000; note: nearly all actives have a fitted effect of over 60% in size
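Reporter derepression read as number of fluorescent GFP-positive objects, 20-120 um in size, counted by laser-scanning cytometer. Mouse LDR line with an epigenetically silenced CMV-GFP locus; compound incubation 30 h, 37 C.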
Hits are given with their value; n = inactive; u = inconclusive; x = not tested or not shown. Shown are actives, neighbours in structure and some others; about 0.34% of the full set was active somewhere. Unless noted, calls come from the whole dose curve; as a rule, active = well fitted curve in the direction sought with a large enough effect; inconclusive = small, poorly fitted or top-dose-only effect, or another doubt; inactive = no such curve, though single readings can be large; an effect the other way counts as inactive or inconclusive.

SMILES	Vif-A3G inh	Vif-APOBEC3F blk	miR-21 FLuc	Epigenetic reg
CSc1nsc(/C=C/Nc2ccc(C(=O)O)cc2)c1C#N	u	u	n	n
Cc1cccc(-c2nnn3c2nc(NCCc2ccc(S(N)(=O)=O)cc2)c2cc(Cl)ccc23)c1	n	n	n	u
CCCSc1ncc(Cl)c(C(=O)Nc2sc3c(c2C(=O)NCCCOC)CCCC3)n1	n	x	x	x
CCSc1ncc(Cl)c(C(=O)Nc2sc3c(c2C(=O)NCCCOC)CCCC3)n1	n	u	n	3.55µM
CCCSc1ncc(Cl)c(C(=O)Nc2sc3c(c2C(N)=O)CCCC3)n1	7.08µM	x	n	u
Cc1cc(-n2ccnc(NCCc3ccc(S(N)(=O)=O)cc3)c2=O)ccc1Br	n	n	n	n
CCN(C(=O)CCS(=O)(=O)c1cc2c(cc1C)NC(=O)CO2)c1cccc(C)c1	n	n	n	n
COc1ccc2cc(C(=O)C3CCCN(Cc4ccccn4)C3)ccc2c1 (stereo not given)	n	28.2µM	n	n
CCn1ccnc1CN1CCCC(C(=O)c2ccc3cc(OC)ccc3c2)C1 (stereo not given)	n	u	n	n
O=C(CSc1nc(=O)n(Cc2ccncc2)c2c1CCC2)Nc1ccc(F)cc1F	n	n	n	n
C(=C\c1ccco1)/C1=NN(c2ccccc2)C(c2ccco2)C1 (stereo not given)	u	25.1µM	n	u
O=[N+]([O-])c1ccc(/C=C/C2=NN(c3ccccc3)C(c3ccco3)C2)o1 (stereo not given)	u	u	n	12.6µM
CN(C)/[N+]([O-])=N/Oc1cc(F)c([N+](=O)[O-])cc1[N+](=O)[O-]	n	x	x	x
N#CCC(=O)N/N=C/c1ccc(N2N=C(c3ccccc3)CC2c2ccccc2)cc1 (stereo not given)	u	6.31µM	n	x
COc1ccc(C2CC(c3ccccc3)=NN2c2ccc(/C=N/NC(=O)c3ccncc3)cc2)cc1 (stereo not given)	n	n	n	n
Cc1cc(N=Cc2c(O)n(-c3ccc4c(c3)OCO4)c(=O)c3ccccc23)ccn1	u	25.1µM	n	u
COc1ccc(OCc2ccc(-c3nc(C#N)c(NCc4ccc(F)cc4)o3)o2)cc1	n	n	n	n
O=C(Oc1ccc(Cl)c2cccnc12)c1ccco1	11.2µM	n	n	u
O=C(Oc1cccc2cccnc12)c1ccco1	u	n	n	u
Cc1ccc(Cn2cnc3c(cnn3C(C)(C)C)c2=O)cc1F	n	x	x	x
CC(C)(C)c1ccc(Oc2nc3ccccn3c(=O)c2/C=C(\C#N)c2nc3ccccc3[nH]2)cc1	n	u	n	25.1µM
Cc1cccc(Oc2nc3c(C)cccn3c(=O)c2/C=C(\C#N)c2nc3ccccc3[nH]2)c1	n	u	n	7.08µM
Cc1cccn2c(=O)c(/C=C(\C#N)c3nc4ccccc4[nH]3)c(Oc3ccc(C(C)(C)C)cc3)nc12	n	n	n	u
COc1ccc(S(=O)(=O)Nc2cccc(-c3ccc(N4CCCCCC4)nn3)c2)cc1	n	n	n	n
CCOC(=O)c1c(NC(=O)CSc2ncccn2)sc2c1CC(C)(C)NC2(C)C	n	n	n	x
SMILES	Vif-A3G inh	Vif-APOBEC3F blk	miR-21 FLuc	Epigenetic reg
CCOC(=O)c1c(NC(=O)CSc2nc3ccc(OC)cc3[nH]2)sc2c1CC(C)(C)NC2(C)C	u	25.1µM	x	x
CC(C)(C)n1ncc2c(=O)n(Cc3c(Cl)cccc3Cl)cnc21	n	x	x	x
CCCN1CCc2c(sc(NC(=S)NC(=O)c3ccccc3)c2C#N)C1	n	25.1µM	n	u
COc1ccc(C(=O)Nc2sc3c(c2C#N)CCN(C(C)=O)C3)cc1	10µM	n	n	n
COc1cc(C(=O)Nc2sc3c(c2C#N)CCN(C(C)=O)C3)cc(OC)c1OC	u	n	n	n
CC(=O)N1CCc2c(sc(NC(=O)c3ccc([N+](=O)[O-])o3)c2C#N)C1	n	n	n	11.2µM
O=S(=O)(NCCc1ccccc1)c1ccc(N2CCCCS2(=O)=O)cc1	n	n	n	n
CCN1CCN(c2nc3ccccn3c(=O)c2C=O)CC1	n	n	n	x
CCOC(=O)CC1C(=O)NCCN1c1nc2c(C)cccn2c(=O)c1/C=C1\SC(=S)N(CC(C)C)C1=O (stereo not given)	x	x	n	7.94µM
CC(C)CN1C(=O)/C(=C/c2c(N3CCc4ccccc4C3)nc3ccccn3c2=O)SC1=S	x	x	n	4.47µM
Cc1nn2c(C)c(C(=O)N3CCN(c4ccccc4)CC3)cnc2c1-c1ccccc1	n	n	n	n
CCOc1ccc(C(=O)COC(=O)Cc2n[nH]c(=O)c3ccccc23)cc1	8.91µM	n	x	x
COc1ccc(NCc2cc3cc4c(cc3n(CC(=O)Nc3cc(C)ccc3C)c2=O)OCCO4)cc1	u	12.6µM	n	n
COc1ccc(NCc2cc3cc4c(cc3n(CC(=O)Nc3ccc(C)cc3C)c2=O)OCO4)cc1	n	n	n	n
Cc1sc2ncnc(N=Nc3c(O)[nH]c4ccccc34)c2c1C	n	22.4µM	n	u
CCc1cc2c(N=Nc3c(O)[nH]c4ccccc34)ncnc2s1	n	u	n	22.4µM
Oc1[nH]c2ccccc2c1N=Nc1ncnc2c1oc1ccccc12	x	x	n	u
CCN(CC)C(=O)c1sc(NC(=O)c2nc3ncccn3n2)c(C(=O)OC)c1C	n	n	n	n
Cc1cc(NC(=O)/C(C#N)=C\c2ccc(-c3ccc(SC(F)F)cc3)o2)n(-c2ccccc2)n1	u	10µM	x	x
Cc1occc1C(=O)N/N=C/C(Br)=C/c1ccccc1	n	u	n	22.4µM
Cc1occc1C(=O)N/N=C/c1ccc(-c2ccccc2)cc1	n	n	n	x
CCn1cc(CNC(=O)c2cc(-c3ccc(C)cc3)nc3ccc(Br)cc23)c(C)n1	n	u	n	15.8µM
COc1ccc([C@H]2O[C@@H](c3ccc(OC)c(OC)c3)[C@H](C)[C@@H]2C)cc1OC	x	x	x	n
O=C(Nc1ccccc1)c1ccc(NCCc2ccccc2)c([N+](=O)[O-])c1	n	u	n	12.6µM
COCCCNC(=O)C1CCN(Cc2cc3ccccc3n2Cc2cccc(C)c2)CC1	n	n	n	n
SMILES	Vif-A3G inh	Vif-APOBEC3F blk	miR-21 FLuc	Epigenetic reg
COc1ccc(/C(O)=C/c2nc3ccccc3n(-c3ccccc3)c2=O)cc1	n	u	n	25.1µM
Cc1ccc(SC2=NS(=O)(=O)c3ccccc32)c(C)c1	n	x	x	x
COc1ccc(CNC(=O)c2ccc(Cn3nc(C)c([N+](=O)[O-])c3C)o2)cc1	n	n	n	4.47µM
COc1ccc(N2CCN(C(=O)c3ccc(Cn4nc(C)c([N+](=O)[O-])c4C)o3)CC2)cc1	n	n	n	x
Cc1ccc(N2C(=O)c3cccc4c(N)ccc(c34)C2=O)c2cccnc12	n	u	n	3.98µM
O=C(C[n+]1ccc2ccccc2c1)c1ccc(F)cc1	n	x	x	x
COc1ccc(/C=C2\SC(=Nc3ccccc3)NC2=O)cc1	x	x	n	x
COc1ccccc1N=C1NC(=O)/C(=C/c2ccc(N(C)C)cc2)S1	3.98µM	8.91µM	n	x
Fc1ccc(Br)cc1C1C=C(c2ccc(Br)s2)Nc2ncnn21 (stereo not given)	u	22.4µM	n	n

Source: PubChem BioAssay
